Laboratory results reported in PubChem BioAssay (NCI).
Several values for one entry are separate records, joined by “and”; a condition that tells them apart may be missing. Identical values can stand only once. The list shows a part of the results, in another mix than the full data. Some salts and complexes are drawn in separate pieces, as the source files them; their charges need not balance. Activity calls are given as the source filed them. Cut-off read from the data, not from the text of the source: active = growth inhibition above about 70%; inactive = the rest.

How the values were obtained:
[1] = NCI Yeast Anticancer Drug Screen. Data for the rad50 strain (AID 155);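 note: 0% = growth of vehicle-only cultures of the same strain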; settings: S. cerevisiae rad50 strain growth inhibition; at 50.0 µM; active compounds read high
[2] = NCI Yeast Anticancer Drug Screen. Data for the mec2-1 strain (AID 157); settings: S. cerevisiae mec2-1 strain, at 50.0 µM, active compounds read high
[3] = NCI Yeast Anticancer Drug Screen. Data for the sgs1 mgt1 strain (AID 161);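 note: 0% = growth of cultures given vehicle only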; settings: S. cerevisiae sgs1 mgt1 strain, at 50.0 µM, active compounds read high
[4] = NCI Yeast Anticancer Drug Screen. Data for the cln2 rad14 strain (AID 165);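 note: 0% = growth equal to vehicle treated cultures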; settings: S. cerevisiae cln2 rad14 strain, at 50.0 µM, active compounds read high
[5] = NCI Yeast Anticancer Drug Screen. Data for the bub3 strain (AID 167); settings: S. cerevisiae bub3 mutant strain, at 50.0 µM, active compounds read high
[6] = NCI Yeast Anticancer Drug Screen. Data for the mlh1 rad18 strain (AID 175); settings: S. cerevisiae mlh1 rad18 strain growth inhibition; at 50.0 µM; active compounds read high

Measured: growth inhibition

[C-]#[O+].[CH2-]C.[Fe+6].[c-]1[c-][c-][cH-][c-]1.c1ccc([PH+](c2ccccc2)c2ccccc2)cc1
inactive: [1] -7% | [2] 25.9% | [3] 55.1% | [4] 35% | [5] -4.1% | [6] 31.2%

O=[N+]([O-])c1cc([N+](=O)[O-])c(O)c([N+](=O)[O-])c1.c1ccc(C2=c3ccc4c5c(ccc(c35)=N2)=C(c2ccccc2)N=4)cc1
inactive: [1] 65.3% | [2] 15.2% | [3] 63% | [4] 25.9% | [5] 7.55% | [6] 48.3%

CCN(CC)C1C=CCCC1.O=[N+]([O-])c1cc([N+](=O)[O-])c(O)c([N+](=O)[O-])c1
inactive: [1] 24.2% | [2] 7.3% | [3] 23.6% | [4] -4.95% | [5] -0.85% | [6] 17.2%

O=[N+]([O-])c1cc([N+](=O)[O-])c(O)c([N+](=O)[O-])c1.OCCc1ccccn1
inactive: [1] 16.8% | [2] 7.5% | [3] 3.1% | [4] 2.85% | [5] 17.9% | [6] 3.95%

NCCN.[Co+3].[K+].[N-]=[N+]=N.[N-]=[N+]=[N-].[N-]=[N+]=[N-].[N-]=[N+]=[N-]
inactive: [1] 25.2% | [2] 50.5% | [3] 44.7% | [4] 42.2% | [5] 44.9% | [6] 37.1%

O=[N+]([O-])C(F)(CN(COCN(CC(F)([N+](=O)[O-])[N+](=O)[O-])CC(F)([N+](=O)[O-])[N+](=O)[O-])CC(F)([N+](=O)[O-])[N+](=O)[O-])[N+](=O)[O-]
active: [1] 86.5% | [2] 92.4% | [3] 89.6% | [4] 90.4% | [5] 89.3% | [6] 89.7%

CN=C(N)C(N)=NC.O=[N+]([O-])c1cc([N+](=O)[O-])c(O)c([N+](=O)[O-])c1
inactive: [1] 4.95% | [2] 18.3% | [3] 26.9% | [4] 9.25% | [5] -8.65% | [6] 7.45%

CN1C2CCCCCCC21.O=[N+]([O-])c1cc([N+](=O)[O-])c(O)c([N+](=O)[O-])c1
inactive: [1] 4.6% | [2] -7.05% | [3] 8.05% | [4] 8.5% | [5] 4.2% | [6] 20.4%

CC(C)OP(C)(=O)O.[Ti]
inactive: [1] -7.9% | [2] -16.9% | [3] -8.9% | [4] -40.5% | [5] -19.4% | [6] -13.2%

CC(C)(N)CO.O=[N+]([O-])c1cc([N+](=O)[O-])c(O)c([N+](=O)[O-])c1
inactive: [1] 8.95% | [2] 0.8% | [3] -0.9% | [4] -23.1% | [5] -3.3% | [6] -3.9%

O=[N+]([O-])c1cc([N+](=O)[O-])c(O)c([N+](=O)[O-])c1.OCCCN=C1CCCCC1
inactive: [1] 49.1% | [2] 9.05% | [3] 36.5% | [4] -20.6% | [5] 0.05% | [6] 29.4%

[C-]#N.[C-]#N.[C-]#N.[C-]#N.[C-]#N.[Fe+6].[NH2-]
inactive: [1] 15.4% | [2] -23.1% | [3] 9.35% | [4] 1.85% | [5] 27.6% | [6] 25.6%

CCCCC(CCCC)NC(CC)CO.O=[N+]([O-])c1cc([N+](=O)[O-])c(O)c([N+](=O)[O-])c1
inactive: [1] 14.7% | [2] -17.6% | [3] 13.7% | [4] -21.6% | [5] 1.6% | [6] 0.3%

O=[N+]([O-])c1cc([N+](=O)[O-])c(O)c([N+](=O)[O-])c1.c1cncc(C2CCCN2)c1
inactive: [1] 2.75% | [2] -8.7% | [3] 22.4% | [4] 7.5% | [5] 15% | [6] 13.4%

CCCCCC(C)NCCO.O=[N+]([O-])c1cc([N+](=O)[O-])c(O)c([N+](=O)[O-])c1
inactive: [1] 35% | [2] -3.8% | [3] 23.8% | [4] -29.9% | [5] 2.45% | [6] 6.85%

Cc1cc2cc3ccccc3cc2c2ccccc12.O=C1c2cc([N+](=O)[O-])ccc2-c2c1cc([N+](=O)[O-])cc2[N+](=O)[O-]
inactive: [1] -6.05% | [2] 6.55% | [3] 8.05% | [4] -13% | [5] -4.75% | [6] 19.4%

C[N+]1(CCCCCCCC[N+]2(C)CCCCCC2)CCCCCC1.O=[N+]([O-])c1cc([N+](=O)[O-])c(O)c([N+](=O)[O-])c1
inactive: [1] -28.3% | [2] -25.6% | [3] -25.5% | [4] -25.2% | [5] -13.6% | [6] -28.6%

CN1CCC(Cc2ccccc2)CC1.O=[N+]([O-])c1cc([N+](=O)[O-])c(O)c([N+](=O)[O-])c1
inactive: [1] 39.9% | [2] 7.85% | [3] 27.7% | [4] 24.7% | [5] 6.25% | [6] 29.4%

CC(C)=C(OP(C)(I)(N(C)C)N(C)C)C(C)(C)C(=O)N(C)C
inactive: [1] 35.9% | [2] -9.35% | [3] 34.5% | [4] -3.95% | [5] 1.5% | [6] 8.85%

CCCCCCCC(C)NCCO.O=[N+]([O-])c1cc([N+](=O)[O-])c(O)c([N+](=O)[O-])c1
inactive: [1] 58.5% | [2] 27.4% | [3] 57% | [4] 15% | [5] 8.05% | [6] 38%

Cc1cc(=O)n(CC(C)C)n1CC(C)C.O=[N+]([O-])c1cc([N+](=O)[O-])c(O)c([N+](=O)[O-])c1
inactive: [1] 37.5% | [2] 3.75% | [3] 33.5% | [4] -18.7% | [5] 4.7% | [6] 17.1%

Cc1cn(C2CC3O[P@](C)(=O)OCC3O2)c(=O)[nH]c1=O (some centres undefined)
inactive: [1] 10.8% | [2] 2.3% | [3] 6.3% | [4] 12.2% | [5] 13.8% | [6] 8.9%

O=C(OCC12COP(=O)(OC1)OC2)C(C(F)(F)F)C(F)(F)F
inactive: [1] -3.55% | [2] -28.9% | [3] -18.6% | [4] 16.4% | [5] 18.6% | [6] -11.7%

CC(=O)NCCCCOc1ccc(N)cc1
inactive: [1] -13.2% | [2] 9.35% | [3] -13.7% | [4] 41.9% | [5] 1.75% | [6] -9.6%

Cc1ccc(Nc2c([N+](=O)[O-])cc([N+](=O)[O-])cc2[N+](=O)[O-])c(C)c1
active: [1] 94.6% | [2] 96.2% | [3] 96.3% | [4] 90.4% | [5] 95.4% | [6] 95.5%

C(=C\c1ccccn1)/c1ccccc1.O=[N+]([O-])c1cc([N+](=O)[O-])c(O)c([N+](=O)[O-])c1
inactive: [1] 7.4% | [2] 9.75% | [3] -3.75% | [4] -8.5% | [5] 22.6% | [6] 1.2%

C[S+](N)(=O)CCC(N)P(=O)(O)O.O=[N+]([O-])c1cc([N+](=O)[O-])c([O-])c([N+](=O)[O-])c1
inactive: [1] -30% | [2] -13.7% | [3] -6.75% | [4] -20.6% | [5] 10.4% | [6] -13.2%

CCCCC(CCCC)NCC(C)O.O=[N+]([O-])c1cc([N+](=O)[O-])c(O)c([N+](=O)[O-])c1
inactive: [1] 42.5% | [2] 16.9% | [3] 37.2% | [4] -2.05% | [5] 4.45% | [6] 36%

ClCCN(CCCl)[PH+]1NCCCO1.ClCCN(CCCl)[PH+]1NCCCO1.[Cl][Pt][Cl] (centres undefined)
inactive: [1] 2.2% and -0.25% | [2] 7.3% and 1.2% | [3] 8.05% and 9.55% | [4] -11.7% and -9% | [5] -2.8% and -5.2% | [6] 9.05% and 9.4%

CC(C)CC(CC(C)C)NCCO.O=[N+]([O-])c1cc([N+](=O)[O-])c(O)c([N+](=O)[O-])c1
inactive: [1] 49.9% | [2] 18.3% | [3] 27.1% | [4] -3% | [5] 2.75% | [6] 32.4%

O=[N+]([O-])c1cn(F)c([N+](=O)[O-])n1
inactive: [1] 0.4% | [2] 2.45% | [3] 21.7% | [4] 8.25% | [5] 12.3% | [6] -8%

O=C(O)c1ccccc1C(=O)c1ccc2ccccc2c1.O=C1c2cc([N+](=O)[O-])ccc2-c2c1cc([N+](=O)[O-])cc2[N+](=O)[O-]
inactive: [1] 52.6% | [2] 57.9% | [4] -5.4% | [5] 56.9%
active: [3] 78.3% | [6] 77.6%

O=[N+]([O-])c1cc([N+](=O)[O-])c([O-])c([N+](=O)[O-])c1.c1cc[n+]2c(c1)CCC2
inactive: [1] 7.35% | [2] -11.4% | [3] 8.1% | [4] 6.1% | [5] 4.75% | [6] 17.4%

O=C(O)C1(O)c2ccccc2-c2ccccc21
inactive: [1] 35.1% | [2] -0.3% | [3] -19.9% | [4] 9.95% | [5] 20.4% | [6] 17.9%
